Molecular target: human MAO-B (Homo sapiens, UniProt P27338)
Assay: MAO-B kynuramine assay

Protein sequences, listed by entry. Tags and fused reporters are not part of them.
UniProt P27338, whole entry: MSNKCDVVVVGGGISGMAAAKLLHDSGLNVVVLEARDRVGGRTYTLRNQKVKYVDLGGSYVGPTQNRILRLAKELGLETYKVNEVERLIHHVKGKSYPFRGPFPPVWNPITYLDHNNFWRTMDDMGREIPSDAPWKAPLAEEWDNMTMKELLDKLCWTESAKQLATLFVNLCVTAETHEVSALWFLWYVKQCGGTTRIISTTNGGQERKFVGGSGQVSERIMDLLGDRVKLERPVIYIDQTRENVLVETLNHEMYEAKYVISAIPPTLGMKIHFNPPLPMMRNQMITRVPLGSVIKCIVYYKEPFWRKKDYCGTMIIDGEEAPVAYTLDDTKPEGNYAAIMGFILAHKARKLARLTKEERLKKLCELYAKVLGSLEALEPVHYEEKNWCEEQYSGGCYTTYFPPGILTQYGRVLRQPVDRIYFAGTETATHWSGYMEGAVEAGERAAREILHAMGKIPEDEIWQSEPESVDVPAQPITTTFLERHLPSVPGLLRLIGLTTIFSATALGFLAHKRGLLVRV

c1ccc([C@@H]2C[C@H]2NC2CCNCC2)cc1 [OG-668]
IC50: > 100 µM
